{"sequences": {"note": "By UniProt entry, the sequences of proteins in these tests, tags left out. Residues count along the entry.", "UniProt P97287, 152-189 limits assumed": "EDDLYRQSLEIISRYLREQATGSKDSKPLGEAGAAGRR", "UniProt Q07820, 209-327 limits assumed": "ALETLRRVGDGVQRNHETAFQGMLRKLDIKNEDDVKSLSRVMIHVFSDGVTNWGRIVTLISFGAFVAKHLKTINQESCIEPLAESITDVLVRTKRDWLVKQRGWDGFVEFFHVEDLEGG"}, "source": "paper PMC5577515", "about": "“Peptide‐Directed Binding for the Discovery of Modulators of α‐Helix‐Mediated Protein–Protein Interactions: Proof‐of‐Concept Studies with the Apoptosis Regulator Mcl‐1” (Angewandte Chemie (International Ed. in English), 2017)", "key": {"Mcl-1": {"molecular_target": "Mcl-1 (UniProt P97287+Q07820)", "assay": "Competitive fluorescence anisotropy (FA) assay, FITC-NoxaB displacement from Mcl-1", "conditions": "read-out: FA IC50; Table 2; inhibition of binding of 5 nM FITC-NoxaB to 10 nM Mcl-1; PBS, 0.05% Tween-20, pH 7.4; non-linear regression of at least three experiments; errors = transformed greater extreme of standard error"}, "MiaPaCa-2 cells": {"system": "MiaPaCa-2 cells", "assay": "MTS cytotoxicity assay, MiaPaCa-2", "conditions": "read-out: MiaPaCa-2 cell growth inhibition IC50, 72 h, 37 °C, triplicate, at least three experiments, errors = transformed greater extreme of standard error"}, "BxPC-3 cells": {"system": "BxPC-3 cells", "assay": "MTS cytotoxicity assay, BxPC-3", "conditions": "read-out: BxPC-3 cell growth inhibition IC50, 72 h, 37 °C, triplicate, at least three experiments, errors = transformed greater extreme of standard error"}, "AsPC-1 cells": {"system": "AsPC-1 cells", "assay": "MTS cytotoxicity assay, AsPC-1", "conditions": "read-out: AsPC-1 cell growth inhibition IC50, 72 h, 37 °C, triplicate, at least three experiments, errors = transformed greater extreme of standard error"}}}
{"compound": "CCCCCCCc1cn(Cc2ccccc2)nn1", "values": [{"measurement": "IC50", "setting": "Mcl-1", "result": 0.033, "unit": "µM"}, {"measurement": "IC50", "setting": "MiaPaCa-2 cells", "result": "> 100", "unit": "µM"}, {"measurement": "IC50", "setting": "BxPC-3 cells", "result": "> 100", "unit": "µM"}, {"measurement": "IC50", "setting": "AsPC-1 cells", "result": "> 100", "unit": "µM"}]}
{"compound": "CCCCCCCc1cn(CC(=O)O)nn1", "values": [{"measurement": "IC50", "setting": "Mcl-1", "result": 0.102, "unit": "µM"}, {"measurement": "IC50", "setting": "MiaPaCa-2 cells", "result": "> 100", "unit": "µM"}, {"measurement": "IC50", "setting": "BxPC-3 cells", "result": "> 100", "unit": "µM"}, {"measurement": "IC50", "setting": "AsPC-1 cells", "result": "> 100", "unit": "µM"}]}
